The data set deals with mVEGFR1 D3-Fc protein (Myc-mVEGFR1 D3-Human IgG1 Fc), WT CH3. Description: TR-FRET with Eu/Cy5 Fabs on HEK293F supernatants; relative FRET, not quantitative (footnote d). On the technique in general: TR-FRET usually uses a lanthanide donor and a delayed reading to cut background.

Chains of the proteins cited; added tags and fusions are not shown. Chains listed by the source or under a name are the forms on record and can include a tag or linker.
mVEGFR1 D3-Fc protein (Myc-mVEGFR1 D3-Human IgG1 Fc), WT CH3, one chain, as listed by the source: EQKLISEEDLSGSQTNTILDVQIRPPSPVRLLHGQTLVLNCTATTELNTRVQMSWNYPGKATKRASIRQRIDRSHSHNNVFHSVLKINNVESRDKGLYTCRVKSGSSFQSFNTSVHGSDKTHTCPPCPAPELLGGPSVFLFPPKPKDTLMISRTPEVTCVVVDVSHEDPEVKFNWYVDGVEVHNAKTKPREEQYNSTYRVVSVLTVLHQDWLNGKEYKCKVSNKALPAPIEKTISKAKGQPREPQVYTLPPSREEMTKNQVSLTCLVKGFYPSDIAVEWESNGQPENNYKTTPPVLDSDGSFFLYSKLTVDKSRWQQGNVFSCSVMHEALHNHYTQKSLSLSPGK

This note sets out measurements from patent US20180009908.

Where “and” joins values, the source holds several entries; their conditions need not be identical. Identical values can stand only once.

B1: hEGFR D3-Fc protein (Myc-EGFR D3-Human IgG1 Fc), WT CH3 (protein)
chain: EQKLISEEDLSGSEERKVCNGIGIGEFKDSLSINATNIKHFKNCTSISGDLHILPVAFRGDSFTHTPPLDPQELDILKTVKEITGFLLIQAWPENRTDLHAFENLEIIRGRTKQHGQFSLAVVSLNITSLGLRSLKEISDGDVIISGNKNLCYANTINWKKLFGTSGQKTKIISNRGENSCKATGQVCHALCSPEGCWGPEPRDCVSCRNVSRGRECVDKGS[human IgG1 Fc not given here]
Regarding B1, the % heterodimer (FRET signal) was 58% and 56.6%.
